Assay [1] addresses T1, Amylin receptor AMY3; CALCR/RAMP3 (Homo sapiens, UniProt O60896+P30988).
T1 sequence (P30988 whole entry): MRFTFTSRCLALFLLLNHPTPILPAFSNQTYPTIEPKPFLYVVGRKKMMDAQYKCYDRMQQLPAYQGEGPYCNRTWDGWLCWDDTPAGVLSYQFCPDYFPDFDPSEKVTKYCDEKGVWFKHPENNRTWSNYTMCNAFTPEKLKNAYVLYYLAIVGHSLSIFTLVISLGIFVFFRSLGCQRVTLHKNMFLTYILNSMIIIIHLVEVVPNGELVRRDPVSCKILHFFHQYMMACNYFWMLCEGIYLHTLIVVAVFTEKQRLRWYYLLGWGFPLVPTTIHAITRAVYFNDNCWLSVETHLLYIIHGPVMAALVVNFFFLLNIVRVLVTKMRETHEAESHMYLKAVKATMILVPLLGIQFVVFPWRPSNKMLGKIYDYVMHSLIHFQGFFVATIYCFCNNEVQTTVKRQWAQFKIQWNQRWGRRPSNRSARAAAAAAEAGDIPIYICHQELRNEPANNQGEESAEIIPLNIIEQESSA
T1 sequence (O60896 whole entry): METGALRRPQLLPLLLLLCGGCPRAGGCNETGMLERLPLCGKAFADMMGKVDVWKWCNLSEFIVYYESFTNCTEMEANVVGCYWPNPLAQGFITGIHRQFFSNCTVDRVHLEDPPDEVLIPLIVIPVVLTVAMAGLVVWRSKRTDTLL
Kind of assay: Displacement of 125I-rat amylin from human AMY3R complex of CTR/RAMP3 expressed in Baby hamster kidney cell membrane incubated for 120 mins by SPA method. Type of assay: cell membranes. On the technique in general: Loss of bound radioactivity is the signal in a displacement assay; it reports binding, not function.

Assay [2] addresses T2, Calcitonin receptor (Homo sapiens, UniProt P30988).
T2 sequence (P30988 whole entry): T1 sequence (P30988 whole entry)
Kind of assay: Displacement of 125I-Calcitonin from human CTR expressed in Baby hamster kidney cell membrane incubated for 120 mins by SPA method. Type of assay: cell membranes.

In assay [3] the target is T3, Amylin receptor AMY3; CALCR/RAMP3 (Rattus norvegicus, UniProt P32214+Q9JJ73).
T3 sequence (P32214 whole entry): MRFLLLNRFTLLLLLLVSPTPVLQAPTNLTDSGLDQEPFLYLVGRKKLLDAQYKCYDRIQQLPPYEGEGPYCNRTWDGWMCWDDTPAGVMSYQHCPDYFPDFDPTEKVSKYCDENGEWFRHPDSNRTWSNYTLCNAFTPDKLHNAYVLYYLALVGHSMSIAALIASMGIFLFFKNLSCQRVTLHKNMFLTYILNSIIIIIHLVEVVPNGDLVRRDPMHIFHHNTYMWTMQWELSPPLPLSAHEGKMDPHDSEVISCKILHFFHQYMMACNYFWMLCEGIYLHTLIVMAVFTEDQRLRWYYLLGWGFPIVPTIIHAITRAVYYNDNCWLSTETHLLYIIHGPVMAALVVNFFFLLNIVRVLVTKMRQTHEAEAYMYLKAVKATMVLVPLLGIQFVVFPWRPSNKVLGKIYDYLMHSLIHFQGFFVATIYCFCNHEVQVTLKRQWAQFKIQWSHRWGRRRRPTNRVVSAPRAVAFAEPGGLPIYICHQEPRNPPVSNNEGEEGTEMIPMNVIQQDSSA
T3 sequence (Q9JJ73 whole entry): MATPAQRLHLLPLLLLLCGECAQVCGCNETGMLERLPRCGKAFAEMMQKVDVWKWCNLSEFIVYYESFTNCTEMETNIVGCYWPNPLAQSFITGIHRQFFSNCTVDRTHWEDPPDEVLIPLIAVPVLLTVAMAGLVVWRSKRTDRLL
Kind of assay: Displacement of 125I-rat amylin from rat AMY3R complex of CTR/RAMP3 expressed in Baby hamster kidney cell membrane incubated for 120 mins by SPA method. Type of assay: cell membranes.

In assay [4] the target is T4, Calcitonin receptor (Rattus norvegicus, UniProt P32214).
T4 sequence (P32214 whole entry): T3 sequence (P32214 whole entry)
Kind of assay: Displacement of 125I-Calcitonin from rat CTR expressed in Baby hamster kidney cell membrane incubated for 120 mins by SPA method. In kind it is cell membranes.

Assay [5] has as its target T1, Amylin receptor AMY3; CALCR/RAMP3. The experiment in a line: Agonist activity at human AMY3R complex of CTR/RAMP3 transduced in human HeLa cells by cAMP assay. In kind it is functional, cell-based. For orientation: cAMP levels reflect the balance of adenylyl cyclase and phosphodiesterase activity.

The IC50 is the point on the concentration scale where inhibition reaches its midpoint. For `CC[C@H](C)[C@H](NC(=O)[C@H](C)NC(=O)CNC(=O)[C@H](Cc1ccccc1)NC(=O)[C@H](CC(N)=O)NC(=O)[C@@H]1CCCN1C(=O)[C@H](CO)NC(=O)[C@H](CO)NC(=O)[C@H](Cc1cnc[nH]1)NC(=O)[C@H](CCCNC(=N)N)NC(=O)[C@H](CC(C)C)NC(=O)[C@H](Cc1ccccc1)NC(=O)[C@H](CC(N)=O)NC(=O)[C@H](C)NC(=O)[C@H](CC(C)C)NC(=O)[C@H](CCCNC(=N)N)NC(=O)[C@H](CCC(N)=O)NC(=O)[C@@H](NC(=O)[C@H](C)NC(=O)[C@@H]1CSSC[C@H](NC(=O)[C@@H](N)CCCCN)C(=O)N[C@@H](CC(N)=O)C(=O)N[C@@H]([C@@H](C)O)C(=O)N[C@@H](C)C(=O)N[C@@H]([C@@H](C)O)C(=O)N1)[C@@H](C)O)C(=O)N1CCC[C@H]1C(=O)N[C@@H](CO)C(=O)N[C@@H](CO)C(=O)N[C@H](C(=O)N[C@@H](CC(N)=O)C(=O)N[C@H](C(=O)NCC(=O)N[C@@H](CO)C(=O)N[C@@H](CCCNC(=N)N)C(=O)N[C@H](C(=O)N[C@@H](Cc1ccc(O)cc1)C(N)=O)[C@@H](C)O)C(C)C)[C@@H](C)O`, the IC50 was 0.213 nM in assay [1], 21.1 nM at Calcitonin receptor [2], 0.372 nM in assay [3] and 32.7 nM on Calcitonin receptor [4].

As usually defined, the EC50 is the midpoint of the concentration-response curve. Turning to `CC[C@H](C)[C@H](NC(=O)[C@H](C)NC(=O)CNC(=O)[C@H](Cc1ccccc1)NC(=O)[C@H](CC(N)=O)NC(=O)[C@@H]1CCCN1C(=O)[C@H](CO)NC(=O)[C@H](CO)NC(=O)[C@H](Cc1c[nH]cn1)NC(=O)[C@H](CCCNC(=N)N)NC(=O)[C@H](CC(C)C)NC(=O)[C@H](Cc1ccccc1)NC(=O)[C@H](CC(=O)O)NC(=O)[C@H](C)NC(=O)[C@H](CC(C)C)NC(=O)[C@H](CCCNC(=N)N)NC(=O)[C@H](CCC(N)=O)NC(=O)[C@@H](NC(=O)[C@H](C)NC(=O)[C@@H]1CSSC[C@H](NC(=O)[C@@H](N)CCCCN)C(=O)N[C@@H](CC(N)=O)C(=O)N[C@@H]([C@@H](C)O)C(=O)N[C@@H](C)C(=O)N[C@@H]([C@@H](C)O)C(=O)N1)[C@@H](C)O)C(=O)N1CCC[C@H]1C(=O)N[C@@H](CO)C(=O)N[C@@H](CO)C(=O)N[C@H](C(=O)N[C@@H](CC(N)=O)C(=O)N[C@H](C(=O)NCC(=O)N[C@@H](CO)C(=O)N[C@@H](CCCNC(=N)N)C(=O)N[C@H](C(=O)N[C@@H](Cc1ccc(O)cc1)C(N)=O)[C@@H](C)O)C(C)C)[C@@H](C)O`, in assay [5], the EC50 was 0.0759 nM.

(Values after ChEMBL document CHEMBL5523739, “NN1213 - A Potent, Long-Acting, and Selective Analog of Human Amylin” (J Med Chem, 2024).)
